Entries after “also recorded” stand apart in the source; their conditions may differ.
What was measured:
CHD4 [1] = target: T1, CHD4 (Homo sapiens, UniProt Q14839); assay: CHD4 and LANA protein expression by IFA and western blotting in PEL cells; type: cell-based; parameters: endogenous in cells; host or cells: BC3, BCBL-1
Method: FIG. 3 Effect of VGN73 on CHD4 and LANA protein in tissue culture. FIG. 3. Amount of CHD4 and LANA protein expression was evaluated by IFA. BC3 cells were treated with VGN73 (18 μM) or mutant peptide (18 μM) for 24 hours. Then the cells were stained with the indicated antibodies. The scale is indicated in the panel. Cell volume. CHD4 and LANA signal intensity were compared. **; p<0.01, ***; p<0.001 versus the VGN73 group. FIG. 3b. Amount of CHD4 and LANA protein expression in total cell lysates was evaluated by western blotting. BC3 and BCBL-1 cells were treated with VGN73 at a concentration of IC50 or starved condition for 24 hours. The respective protein band was confirmed by immunoblotting with anti-CHD4 and anti-LANA antibody. FIG. 3c. Evaluating of caspase and proteasome in CHD4 cleavage by VGN73. BC3 cells were pretreated with pan-caspase inhibitor. Z-VAD-FMK (50 μM) or proteasome inhibitor, bortezomib (25 nM) for 1 hour, followed by treated with VGN73 (18 μM) for 8 hours. The respective protein band was confirmed by immunoblotting with anti-CHD4 antibody.
BC3 cells and BCBL-1 cells were treated with VGN73 at the concentration of IC50 for 24 hours. These cells were also treated with VGN73 in media without FBS. To evaluate the effect of VGN73 on CHD4 and LANA proteins in tissue culture, IFA and western blotting were carried out, and these gene expressions were evaluated by RT-qPCR. Moreover, BC3 cells were pretreated with pan-caspase inhibitor, Z-VAD-FMK (50 μM) or proteasome inhibitor, bortezomib (25 nM) for 1 hour, followed by treated with VGN73 (18 μM) for 8 hours. BC3 cells were pretreated with lysosome inhibitor, chloroquine (7.5 μM) for 1 hour, followed by treated with VGN73 (18 μM) for 24 hours. Western blotting was carried out for analyzing biological mechanisms for CHD4 decreasing and inducing cell death by VGN73 treatment.
To evaluate subcellular peptide localization, IFA was carried out (FIG. 2d). Cy5-labeled peptides were used to track subcellular localization. BC3 cells were treated with 10 μM of Cy5-labeled VGN73 or mutant peptide for 1 min and 60 min. Moreover, to evaluate VGN73 efficacy to CHD4 and LANA in tissue culture. IFA was carried out (FIG. 3a). BC3 cells were treated with VGN73 at a concentration of IC50 or mutant peptide for 24 hours. In both assays, the cells were washed with PBS 2 times after peptide treatment. The cells were then fixed with 4% formaldehyde, permeabilized with 0.2% Triton X-100. […] The exposure settings and image acquisition protocols were fixed in each imaging study to enable quantitative analysis. Mean LANA and CHD4 fluorescence (measured in arbitrary units, or A.U.) per cell was subsequently calculated using onboard software and/or NIH Image (FIG. 3a(b)). […]

By UniProt entry, the sequences of proteins in these tests, tags left out. Residues count along the entry.
UniProt Q14839, 1-512: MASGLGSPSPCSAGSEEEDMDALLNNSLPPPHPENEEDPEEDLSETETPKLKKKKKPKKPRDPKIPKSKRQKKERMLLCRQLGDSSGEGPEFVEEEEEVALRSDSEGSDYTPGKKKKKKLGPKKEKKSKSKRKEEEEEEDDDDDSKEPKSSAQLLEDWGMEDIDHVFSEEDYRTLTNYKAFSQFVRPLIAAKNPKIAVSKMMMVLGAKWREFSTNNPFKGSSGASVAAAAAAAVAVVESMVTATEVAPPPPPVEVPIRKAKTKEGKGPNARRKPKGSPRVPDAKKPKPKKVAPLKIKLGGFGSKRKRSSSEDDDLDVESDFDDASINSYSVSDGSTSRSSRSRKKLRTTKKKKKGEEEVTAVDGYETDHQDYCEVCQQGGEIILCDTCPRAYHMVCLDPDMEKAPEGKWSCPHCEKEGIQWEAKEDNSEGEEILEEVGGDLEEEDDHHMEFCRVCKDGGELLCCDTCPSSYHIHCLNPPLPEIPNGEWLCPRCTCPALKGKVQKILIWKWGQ

leukemic cell = assay: Leukemic cell-killing activity during peptide screening; type: cell-based; details: longer version vs peptide without PYGLKK
[2] = Toxicology studies in BALB/c mice (body weight, serum biochemistry); type: in vivo; details: 10 mg/kg every other day i.p.
U937 cells = assay: MTT cell viability assay, U937; type: cell-based; details: 24 hours
[3] = Cell membrane penetration of peptide design; type: cell-based; details: histidine instead of phenylalanine (F) at the third position
CHD4 [4] = assay: ELISA of VGN73 binding region in CHD4 (CHD4 deletion proteins); details: OD 450 nm
[5] = system: cleaved caspase 3, LC3II and LC3I; assay: Western blot of apoptosis and autophagy markers in BC3 cells; type: cell-based; details: 18 μM, 24 hours
CHD4 [6] = target: T1, CHD4; assay: ELISA of VGN73 binding region in CHD4 (CHD4 deletion proteins); parameters: made in house; host or cells: Sf9 (recombinant baculovirus); details: CHD4 1-512, 363-1245, full-length; OD 450 nm
[7] = Peptide solubility in water; details: histidine instead of phenylalanine (F) at the third position
[8] = system: BC3, BCBL-1 or Raji cells; assay: SLAM-seq direct target gene identification; type: cell-based, human
[9] = target: T2, CHD4 occupancies on promoters in BCBL-1 cells (Homo sapiens, UniProt Q14839); assay: CUT&RUN-qPCR of CHD4 occupancies on promoters; type: cell-based; details: ratio VGN73 treated vs non-treated
T2 construct: endogenous in cells; host or cells: BC3, BCBL-1

## CC[C@H](C)[C@H](NC(=O)[C@@H](NC(=O)[C@H](C)NC(=O)[C@H](Cc1c[nH]cn1)NC(=O)[C@H](CCCCN)NC(=O)[C@H](Cc1c[nH]c2ccccc12)NC(=O)CCNC(=O)[C@H](CCCNC(=N)N)NC(=O)[C@H](CCCNC(=N)N)NC(=O)[C@H](CCCNC(=N)N)NC(=O)[C@H](CCCN)NC(=O)[C@H](CCCNC(=N)N)NC(=O)[C@H](CCCNC(=N)N)NC(=O)[C@H](CCCCN)NC(=O)[C@H](CCCCN)NC(=O)[C@H](N)CCCNC(=N)N)C(C)C)C(=O)N[C@@H](Cc1ccccc1)C(=O)N[C@@H](Cc1c[nH]c2ccccc12)C(=O)NCC(=O)N[C@@H](CC(N)=O)C(=O)N[C@@H](CC(=O)O)C(=O)N1CCC[C@H]1C(=O)N[C@@H](Cc1ccc(O)cc1)C(=O)NCC(=O)N[C@@H](CC(C)C)C(=O)N[C@@H](CCCCN)C(=O)N[C@@H](CCCCN)C(=O)O [VGN73, (d-Arg}KKRR{ORN}RRR{β-Ala}WKHAVIFWGNDPYGLKK]
CHD4 [1]; BC3 and BCBL-1 cells, IC50 concentration, 24 hours
  CHD4 cleavage (western blotting, total cell lysates): induction of CHD4 cleavages; also recorded: effectively induces caspase-mediated CHD4 cleavages
CHD4 [1]; BC3 and BCBL-1 cells, VGN73 at IC50, 24 hours
  degradation of other proteins BRM, SMARCE1, IRF4 in total lysates: not seen; also recorded: spares other cellular proteins
CHD4 [1]; BC3 cells, 18 μM, 24 hours
  intensity of the CHD4 signal (IFA): substantially lowered
CHD4 [1]; starved condition, 24 hours
  CHD4 cleavage under a low serum condition: enhanced
Leukemic cell
  increase of cell-killing effects by addition of C-terminal 6 amino acids (PYGLKK): approximately 2 fold
[2]
  body weight: no decreased body weight over three weeks
[2]; end of experiment
  blood chemistry: no sign of organ damage
U937 cells
  sensitivity of U937 cells (MTT): highest sensitivity; also recorded: most sensitive
[3]
  cell membrane penetration: better cell membrane penetration
CHD4 [4]
  binding to recombinant CHD4 proteins lacking PHD domain: failed to bind
[5]
  apoptosis and autophagy markers by western blotting: increasing of apoptosis and autophagy markers
CHD4 [6]
  binding to recombinant CHD4 proteins containing the PHD domain: bound to recombinant CHD4 that encodes 1-512, 363-1245, or the fill-length CHD4
[7]
  peptide solubility in water: increased peptide solubility in water
[8]; IC50 concentration, 30 min before 4sU, 1.5 hrs labeling, vs PBS and mutant
  commonly up-regulated direct target genes: KLF6, MYADM, FOSB, RGS2, JUN, JUND, CCL3, and PPP1R15A are commonly upregulated among three cell lines
[8]; specific to BC3 cells
  TP53 gene expression: induction of TP53 gene expression
[9]
  occupancies of CHD4 on target gene promoters: decreased the occupancies of CHD4 from each promoter, except for Klf6; also recorded: reduced its occupancies
